Patent US10751288B2, “Dry processed surface coated engineering excipients” (New Jersey Institute of Technology, priority 2016, dated 2020)

Assay: Flow function coefficient (FFC), FT4 shear test at 3 kPa
Format: physicochemical
Conditions: Example 20, APIs alone
Procedure: Unless otherwise noted, bulk density and flowability, i.e., flow function coefficient (FFC), as provided herein is obtained using a Freeman FT4 powder tester (Freeman Technologies Ltd., Worcestershire, UK), where the bulk density and the flow function coefficient (FFC) were defined as the ratio of consolidation stress to the unconfined yield stress. The FFC was evaluated from a shear test under the consolidation pressure of 3 kPa. Detailed procedures for both may be found in Freeman et al., Measuring the flow properties of consolidated, conditioned and aerated powders—A comparative study using a powder rheometer and a rotational shear cell. Powder Technology 174, 25-33 (2007) and Huang et al., Flow and bulk density enhancements of pharmaceutical powders using a conical screen mill: A continuous dry coating device. Chemical Engineering Science 125, 209-224 (2015).
Though FFC is the flowability measure used herein, one of ordinary skill in the art would recognize that other flow indices can be used, such as angle of repose, Carr index, Hausner ratio, flow through orifice testing device, and others. […] A classification of powder flow behavior based on FFC is defined by Schulze, D., Powders and Bulk Solids. Springer (2008) according to the FFC value: “FFC<1—not flowing, 1<FFC<2—very cohesive, 2<FFC<4—cohesive, 4<FFC<10—easy flowing, and FCC>10—free-flowing”.

FFC: 1.93
Compound: CC(=O)Nc1ccc(O)cc1 [Micronized APAP, micronized acetaminophen]
